# Only a part is listed here, and it is no random draw. Calls of active or inactive are those of the source.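 The calls were made as follows: active = activation above the mean of all tested compounds plus 3 SD, cutoff set per screening run (cut at about 20% in these data); inactive = the rest.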
# Chains of the proteins cited; added tags and fusions are not shown.
# UniProt P30559, whole entry: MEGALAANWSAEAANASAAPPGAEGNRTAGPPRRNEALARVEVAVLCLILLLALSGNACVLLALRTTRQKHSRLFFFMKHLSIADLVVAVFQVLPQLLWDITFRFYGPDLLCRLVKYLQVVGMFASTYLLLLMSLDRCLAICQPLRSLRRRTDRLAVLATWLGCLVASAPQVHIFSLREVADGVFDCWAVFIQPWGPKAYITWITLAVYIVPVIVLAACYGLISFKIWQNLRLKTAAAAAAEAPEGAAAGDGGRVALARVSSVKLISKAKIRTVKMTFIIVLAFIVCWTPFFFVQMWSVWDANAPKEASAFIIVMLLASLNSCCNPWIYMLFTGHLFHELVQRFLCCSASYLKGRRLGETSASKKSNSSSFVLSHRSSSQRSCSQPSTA
# Target: Oxytocin receptor (Homo sapiens) (UniProt P30559)
# Assay: oxytocin receptor activation by calcium flux – fluorescence, CHO-OTR cells, Fluo-8 calcium, primary screen (AID 2435);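 also: peak over basal fluorescence ratio from a 100 s FLIPR kinetic read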
# Conditions: Fluo-8 calcium fluorescence, at 3 µM, active compounds read high, normalized: DMSO 0%, oxytocin 100%
row,SMILES,activation
1,Nc1cccc2c([As](=O)(O)O)cccc12,inactive: 18.4%
